Apparent affinities of Ab-14 variants for a coronavirus HR2 peptide

Target peptide (SARS-CoV-2 spike, HR2 region): PDVDLGDISGINAS

The variants keep the heavy chain, the linker and the frameworks of Ab-14 (scFv order VH, the linker GGGGSGGGGSGGGGS, VL).
VH: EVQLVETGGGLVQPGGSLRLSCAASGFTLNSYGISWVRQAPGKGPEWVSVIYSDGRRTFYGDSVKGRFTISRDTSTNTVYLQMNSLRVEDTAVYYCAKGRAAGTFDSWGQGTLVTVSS
VL: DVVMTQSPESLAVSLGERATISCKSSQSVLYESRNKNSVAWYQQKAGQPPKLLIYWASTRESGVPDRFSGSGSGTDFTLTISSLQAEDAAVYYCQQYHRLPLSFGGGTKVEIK

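The parent was found by panning a naive human phage display library on the peptide. Designed CDR sequences, proposed from the first random library and measured here. Several design methods are mixed in this list. Affinity was read by AlphaSeq, a pooled yeast mating assay with surface-displayed partners. Pairs that bind mate more often; barcode pairs of the diploids are counted by sequencing. Each replicate has its own calibration line, from reference interactions of the BCL2 family. The assay was run in six technical replicates.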

Each variant is given by its three light chain CDRs, as the data file delimits them; those of the parent are KSSQSVLYESRNKNSVA, WASTRES, QQYHRLPLS. Numbers give log10(Kd / nM), so 0 is 1 nM and 3 is 1 µM. Smaller is tighter. Replicates are averaged; those with no signal do not enter the mean. An entry "nd" has no value in the source: the pair was not observed among the diploids in any replicate. This suggests poor binding but is not conclusive. Of ten entries with the parent sequence, four were seen in most replicates (averages 0.34 to 2.37), three in one and three in none, so single entries are noisy. Background: pairings of all light chain designs with three empty control strains gave a value in 4% of cases (median 2.64, 5th percentile 1.59). Values in that range, when seen in few replicates, are hard to tell from nonspecific mating. For each scFv, signals with the empty controls are counted beside the result. In the paper, a design with two or fewer of six values counts as a poor binder. A sequence measured in both rounds can read differently, since the two assays cover different ranges.

| CDR-L1 | CDR-L2 | CDR-L3 | mean, log10 nM | seen in | signal with controls |
|---|---|---|---|---|---|
| TISQMTSLFSQTINNVA | EVSTREQ | QQYDRLPLI | 0.95 | 6/6 | 0/18 |
| KISQMVRVGSTHQNSIA | EEAKRAD | QQYHRLPLS | 0.30 | 6/6 | 0/18 |
| KLMQSALLESRNVNNVA | QASQRML | QDYHRLPLS | 0.56 | 6/6 | 1/18 |
| KLSQEMEYESRNKNSVA | QASERES | QDYHRLPLQ | 0.05 | 6/6 | 3/18 |
| KSSQSVLYCSRNKNSVA | QASTRES | QQYHRLPLS | 2.21 | 2/6 | 1/18 |
| MISQMFEGLSTSKNPVA | QVSTREE | QQYHRLPLS | 1.26 | 6/6 | 2/18 |
| CSLQSVLYESRNKNSVA | HASTRED | QQYHRLFLC | nd | 0/6 | 0/18 |
| KNSQSVLGEQRNKNSVA | DASTRES | QQYHRLPLS | 1.14 | 5/6 | 0/18 |
| KLEQSVLYESRNKNSVA | NASQRED | QQYHRLPLS | -0.38 | 6/6 | 0/18 |
| KLSQDALYESRNKNSVA | QASTREV | QQYHRLPLS | -0.22 | 6/6 | 0/18 |
| KLSQSFMYEERNPNSVA | NASKRES | QQYHRLPLS | -0.24 | 6/6 | 0/18 |
| KSSQSVLYESRLKNSVA | NASTRES | QQYHRLPLS | 0.25 | 6/6 | 0/18 |
| KMTKAEQSIGSHQQNIA | DSNKITD | QQYYRLPLT | 0.39 | 6/6 | 4/18 |
| HLSQSVGGEMRNKNSVA | EAQTREQ | QQYHRLPLS | 0.11 | 6/6 | 1/18 |
| KSSMSDLYESRNKNSVA | GASTRES | QQYHRLPLS | -0.06 | 6/6 | 1/18 |
| KYSGSQLYEDRMVNSVA | NASQREE | QQYHRLPLS | 0.07 | 6/6 | 1/18 |
| TISGVMQQMTHSKNNVA | EVSERLD | QQYFRLPLE | 0.29 | 6/6 | 0/18 |
| QFQFEDVQYTVNEQAIA | EENQRMQ | QQYFRLPLG | 0.98 | 6/6 | 0/18 |
| KNSWSVLFESRNKNSVA | DASTRSS | QQYHRLPLS | -0.15 | 6/6 | 0/18 |
| KLSQVTHSEHKNTNSIA | EMVTREK | QQYDRLPLS | 0.09 | 6/6 | 1/18 |
| KLLGEVTGHSRNRNSVA | HNSTRED | QQYDRLPLS | 2.45 | 5/6 | 3/18 |
| MISQLFMYGSRNPNSVA | QASTRES | QQYDRLPLI | 0.16 | 6/6 | 0/18 |
| KSSQSVLYESRNKNDVA | WASTRES | QQYHRLPLS | nd | 0/6 | 0/18 |
| KLVQSELYESRNKNNVA | GASQRES | QQYHRLPLS | -0.31 | 6/6 | 0/18 |
| KCDQWVDYGDRNKNSVA | NASTRES | QQYHRLPLS | 1.75 | 6/6 | 0/18 |
| TIAQSMLYLSNIKNSIA | QAETRES | QQYHRLPIS | nd | 0/6 | 0/18 |
| KLRQSTLYESRNKNSVA | NASTRES | QQYHRLPLT | 0.04 | 6/6 | 0/18 |
| KSSQSVLYESRNKNSVA | WASTRES | QQYHRLPDS | nd | 0/6 | 1/18 |
| KLSQSFNYESRNKNSVA | MASTRES | QQYHRLPLS | 0.88 | 6/6 | 0/18 |
| TISQMTSLFSQTINNVA | EVSTREA | QQYDRLPLA | 1.20 | 6/6 | 0/18 |
| KLEMSVQLEMRNKNSVA | SASTRER | QQYHRLPLS | 0.34 | 6/6 | 1/18 |
| KVSEFMRGMMRQKDSIA | DNETRES | QQYDRLPLS | 1.78 | 6/6 | 1/18 |
| HVMHEQLDYKNYENNIA | HESQRLY | QQYSQLPLT | 2.28 | 4/6 | 0/18 |
| KLQWSVLLQSRNKNSVA | QASTRMM | QQYHRLPLS | 0.42 | 6/6 | 0/18 |
| KSSQSIFYDSRNKYSVA | YASTRES | QQVHRLPLS | nd | 0/6 | 0/18 |
| KVSCSVMLESRNWNAVA | EASTRES | QDYHRLPLS | 0.70 | 6/6 | 0/18 |
| KVSQSVGYESRNKNSVA | EASTRES | QQYHRLPLS | 0.09 | 6/6 | 0/18 |
| KVSISGLYESRMKNSVA | EASTRES | QQYHRLPLS | -0.13 | 6/6 | 1/18 |
| KLQQQDEYESRNKNSVA | NASCRWQ | QQYHRLPLS | 1.38 | 6/6 | 0/18 |
| KVSNQVDYEDRNKNAVA | DASTRES | QQYHRLPLS | 0.92 | 6/6 | 0/18 |
| KLSQSVLYESRNKNSVA | DANTRES | QQYHRLPLS | 0.58 | 6/6 | 0/18 |
| KSSQSVLYESRNKNSVA | WASTRES | QQTHRLPLS | 1.84 | 5/6 | 1/18 |
| KSSQSVLYESQNKNSVA | WASTRVS | QQYHRLPLS | 0.94 | 6/6 | 0/18 |
| KCSLSVEYLSRQKNSVA | HASTRES | QQYHRLPLS | 0.74 | 6/6 | 0/18 |
| HMSAVTMMGSRHRNSVA | QMTTREN | QQYDRLPLA | 1.99 | 1/6 | 0/18 |
| KLQQSVLYESRNKNSVA | NASQREQ | QQYHRLPLS | -0.34 | 6/6 | 0/18 |
| MMSQVTGMELRQQNNVA | QTTTREE | QQYDRLPLI | 1.65 | 6/6 | 0/18 |
| HISQQVGMTSRNKNSVA | ENSTRED | QQYDRLPLS | 2.78 | 3/6 | 0/18 |
| KLSQSTLCESRNKNSVA | DASTRES | QQYHRLPLS | -0.16 | 6/6 | 0/18 |
| KISQSVGYESRNKNSIA | NASQRMQ | QQYHRLPLS | -0.08 | 6/6 | 1/18 |
| MISQLMNMGTFAINSVA | QAEIRNA | QQYDRLPLI | 0.48 | 6/6 | 0/18 |
| KLSATYRYESQNKNSIA | EMTTREK | QCYHRLPLS | 1.92 | 5/6 | 0/18 |
| KLYQSNGYESRNDNNVA | NASLRES | QQYHRLPLS | 0.70 | 6/6 | 2/18 |
| KSSQSGLYYSRRKNSVA | YASTRAS | QQYHRDPLC | 1.90 | 3/6 | 1/18 |
| KISQSVLYESRNKNSVA | WASTRES | QQYHRLPLF | 0.32 | 6/6 | 2/18 |
| KLSMSVLYESRNKNSVA | GASTRES | QQYHRLPLS | -0.39 | 6/6 | 1/18 |
| KLSQSWLYESRNSNSVA | NASTRED | QQYHRLPLS | 0.10 | 6/6 | 0/18 |
| KISQMARVGQTHGNSIA | EEATRAK | QQYHRLPLS | 0.70 | 6/6 | 0/18 |
| KLVQSELYESRNKNNVA | GASQRES | QAYHRLPLS | -0.19 | 6/6 | 1/18 |
| KLSQSCLYESRNKNSVA | NASTRLS | QQYHRLPLS | 0.10 | 6/6 | 3/18 |
| KCSQSVLYESRNKNSVA | WASTREE | QQLHRLPLS | nd | 0/6 | 0/18 |
| KLRMSTLYESRNKNSVA | QASKRES | QQYHRLPLS | 0.20 | 6/6 | 2/18 |
| KISQSELEESRNKNSVA | WATVREA | QQYHRLPLS | 0.41 | 6/6 | 3/18 |
| KLQQWWLYEGRNKNSVA | SASQRSD | QQYHRLPLS | 0.08 | 6/6 | 0/18 |
| KSQQSQEYESRNKNSVA | HASTRLS | QQYHRLPLS | 0.35 | 6/6 | 0/18 |
| KLSQSVEYESRNKNSVA | QASTRES | QQYHRLPLS | 0.09 | 6/6 | 1/18 |
| KSSQSVLRESRNKNSVA | WASTRES | QQYHVLHCS | nd | 0/6 | 0/18 |
| KSSQSVLYESCNKNSVA | HASTRES | QQYHRLPLS | 1.67 | 6/6 | 1/18 |
| TISQSTYWESRNKNNVA | QTSTREE | QDYDRLPLS | 0.84 | 6/6 | 2/18 |
| KSSISDLYESRNKNSVA | EASTRES | QQYHRLPLS | 0.24 | 6/6 | 0/18 |
| KSSQSVLYESRNKNNVA | YASTRES | QQYHRLPLS | 0.71 | 6/6 | 1/18 |
| KLQQSWLYESRNKNSVA | NASTRCS | QQYHRLPLS | -0.06 | 6/6 | 1/18 |
| KLSQSDWYQSRMDNSVA | NASTRES | QQYHRLPLS | 0.13 | 6/6 | 1/18 |
| KLSQSVLYESRNKNSVA | GAHTRES | QQYHRLPLS | -0.31 | 6/6 | 2/18 |
| KSSQSVLYESRNGNSVA | WASTRNS | QQYHRLPLS | 2.26 | 5/6 | 0/18 |
| MISDMGNHDSRMQNSVA | NNSTREA | QQYHRLPLS | 1.92 | 6/6 | 2/18 |

The last 9 entries again:

CDR-L1,CDR-L2,CDR-L3,"mean, log10 nM",seen in,signal with controls
KSSQSVLYESCNKNSVA,HASTRES,QQYHRLPLS,1.67,6/6,1/18
TISQSTYWESRNKNNVA,QTSTREE,QDYDRLPLS,0.84,6/6,2/18
KSSISDLYESRNKNSVA,EASTRES,QQYHRLPLS,0.24,6/6,0/18
KSSQSVLYESRNKNNVA,YASTRES,QQYHRLPLS,0.71,6/6,1/18
KLQQSWLYESRNKNSVA,NASTRCS,QQYHRLPLS,-0.06,6/6,1/18
KLSQSDWYQSRMDNSVA,NASTRES,QQYHRLPLS,0.13,6/6,1/18
KLSQSVLYESRNKNSVA,GAHTRES,QQYHRLPLS,-0.31,6/6,2/18
KSSQSVLYESRNGNSVA,WASTRNS,QQYHRLPLS,2.26,5/6,0/18
MISDMGNHDSRMQNSVA,NNSTREA,QQYHRLPLS,1.92,6/6,2/18

From the AlphaSeq antibody data of Li et al. 2023 (doi:10.1038/s41467-023-39022-2), copy in the FLAb collection.